Several values for one entry are separate records, joined by “and”; a condition that tells them apart may be missing. Equal entries are not always repeated. Entries after “also recorded” stand apart in the source; their conditions may differ. Where two headings read alike, the source gives them in different places.
What was measured:
[1] = tested on: db/db mice; assay: single-dose blood glucose, body weight and food consumption in db/db mice; type: in vivo, mouse
Description: A. In vivo assays using db/db mice. About seventy five (75) BKS.Cg-m+/+Leprdb/J (Jackson Labs stock number 000642) male (“db/db”) mice at the age of 7-9 weeks of age were used in these studies, and maintained using standard animal care procedures. Studies initiated after one-week acclimation to facility conditions. On the morning of study day 0, mice were weighed and fasted for 4 hrs. Blood glucose was measured by glucometer using standard procedures. At least fifty-four (54) mice were selected based on body weights and those with blood glucose levels ≥300 mg/dL (i.e., diabetic) were randomly assigned into 6 groups (n=9). […] Clinical observations were conducted at receipt, prior to randomization, and daily from Days 1 to 5. Body weights were measured and recorded at receipt, prior to randomization, and daily from Days 1 to 5. Food consumption was measured and recorded daily from Days 1 to 5.
About seventy-five (75) BKS·Cg-m+/+Leprdb/J (Jackson Labs stock number 000642) male (“db/db”) mice at the age of 7-9 weeks of age were used in these studies and maintained using standard animal care procedures. Studies initiated after one-week acclimation to facility conditions. On the morning of study day 0, mice were weighed and fasted for 4 h Blood glucose was measured by glucometer using standard procedures. At least fifty-four (54) mice were selected based on body wt and those with blood glucose levels >300 mg/dL (i.e., diabetic) were randomly assigned into 6 groups (n=9). […] Body weights were measured and recorded at receipt, prior to randomization, and daily from Days 1 to 5. Food consumption was measured and recorded daily from Days 1 to 5. Blood samples for glucose analysis were collected pre-test (Day −3) and at 0, 2, 4, 8, 24, 48, 72, 96 and 120 hours following the single dose of the indicated compound.

[2] = pharmacokinetics in Yucatan miniature swine (SC and IV, 20 nmol/kg); type: in vivo, Yucatan miniature swine (Sus scrofa); details: Yucatan mini-swine
Description: The test animals were a total of four non-naïve male Yucatan miniature swine (Sus scrofa), housed singly. Body weights were from 73 to 75 kg. The housing room(s) were set to maintain a room temperature of 16 to 27° C. (61 to 81″F). Relative humidity was recorded. A 12-hr light/12-hr dark photoperiod was maintained. Room lights may have been turned on during the dark cycle to facilitate sample collection and/or other in-life activities. Animals were fed a maintenance amount of Purina S-9 swine diet. Clean, fresh water from an on-site deep water well was available ad libitum. General, in-cage observations were made at least twice daily (morning and evening) during the study period to assess general health, moribundity or mortality.
Dose concentration was 5.5 mg/mL (dose volume 0.015 mL/kg) for both treatments.
Whole blood samples for pharmacokinetic analysis ˜3 ml/time point) in tubes containing K2EDTA were collected via vascular access ports (VAP). Samples were maintained on wet ice until processing, ˜30 minutes or less post-collection. All samples were centrifuged for ˜15 minutes at ˜3000 rpm and ˜4° C. Resulting plasma was transferred evenly into two cryovials (primary and backup) and placed on dry ice. Plasma samples were stored frozen at ˜70° C., until primary samples were shipped for analysis.
The test animals were a total of four non-naïve male Yucatan mini-swine (Sus scrofa; body weight 73-81 kg), housed singly. Animals were fed a maintenance amount of Purina S-9 swine diet. General, in-cage observations were made at least twice daily (morning and evening) during the study period to assess general health, moribundity or mortality.
Dose concentration was 5.5 mg/mL (dose volume 0.015 mL/kg) for both treatments. Whole blood samples for pharmacokinetic analysis (˜3 mL/time point) were collected via vascular access ports into tubes containing K2EDTA. Samples were maintained on wet ice until processing, ˜30 minutes or less post-collection. All samples were centrifuged for ˜15 minutes at 3000 rpm and ˜4° C. Plasma samples were stored frozen at −70° C., until primary samples were shipped to Frontage Laboratories (Exton, Pa.) for bioanalysis by LC-MS/MS similarly to as outlined below.

[3] = plasma protein binding by ultracentrifugation, dog plasma; type: in vitro ADME; details: pH 7.4, 15000 ng/mL, 37° C., 6 hours
Description: (§1) Such non-covalent binding to albumin is anticipated to slow down the degradation of peptide in plasma and results in decreased renal clearance. […] Pooled plasma was obtained from at least three Sprague Dawley rats, beagle dogs, and cynomolgus monkeys. Pooled human plasma was obtained from three human males (that reportedly had not taken any medication in the previous 7 days before collection). K2EDTA was used as the anticoagulant. The pH of each pool of plasma was adjusted, if needed, to approximately pH 7.4 with hydrochloric acid or sodium hydroxide. Ultracentrifugation was performed using polycarbonate ultracentrifugation tube placed in a S80 AT2 rotor at 37° C. at 357000×g for 6 hours to achieve separation of PUC (supernatant) from plasma proteins. After centrifugation, the PUC was analyzed by LC MS for the calculation of protein binding. Protein Binding was evaluated as Percent unbound=(Cu/Co)×100 and Percent bound=100-percent unbound where Co is the concentration of test article in plasma prior to ultracentrifugation (ng/mL) and Cu is the concentration of test article in plasma in the ultracentrifugate (ng/mL).

[4] = tested on: plasma proteins of dog; assay: as above; type: in vitro ADME
Description: as §1

[5] = tested on: plasma proteins; assay: as above; type: in vitro ADME; details: beagle, pooled plasma, pH 7.4, 15000 ng/mL, 37° C., 6 hours, read-out: mean percent protein binding (converted)
Description: as §1

[6] = CMC of Polysorbate 20 in F58 buffer pH 7.7 with added ALT-801 by surface tensiometry; type: physicochemical
Description: CMC shifts are simply calculated as CMC in the presence of the ALT-801 less the CMC for the surfactant alone in solution.

[7] = db/db mice, 10 nmol/kg single sc dose
[8] = male, pig (miniature swine, Sus scrofa), plasma, 20 nmol/kg SC
[9] = 15000 ng/mL, 37° C., 6 hours, replicate, listed as ALT-801
[10] = F58 buffer pH 7.7, Test # 1 and 2, listed as ALT-801

In the case of `CC[C@H](C)[C@H](NC(=O)[C@H](Cc1ccccc1)NC(=O)[C@H](CCC(=O)O)NC(=O)[C@@H]1CCCCNC(=O)CC[C@H](NC(=O)[C@H](CC(=O)O)NC(=O)[C@H](CC(C)C)NC(=O)[C@H](Cc2ccc(O)cc2)NC(=O)[C@H](CCCCN)NC(=O)[C@H](CO)NC(=O)[C@H](Cc2ccc(O)cc2)NC(=O)[C@H](CC(=O)O)NC(=O)[C@H](CO)NC(=O)[C@@H](NC(=O)[C@H](Cc2ccccc2)NC(=O)[C@@H](NC(=O)CNC(=O)[C@H](CCC(N)=O)NC(=O)C(C)(C)NC(=O)[C@@H](N)Cc2c[nH]cn2)[C@@H](C)O)[C@@H](C)O)C(=O)N[C@@H](CCCCNC(=O)[C@H]2O[C@@H](OCCCCCCCCCCCCCCCCCC(=O)O)[C@H](O)[C@@H](O)[C@@H]2O)C(=O)N[C@@H](C)C(=O)N[C@@H](C)C(=O)N1)C(=O)N[C@@H](CCC(N)=O)C(=O)N[C@@H](Cc1c[nH]c2ccccc12)C(=O)N[C@@H](CC(C)C)C(=O)N[C@@H](CC(C)C)C(=O)N[C@@H](CCC(N)=O)C(=O)N[C@H](C(N)=O)[C@@H](C)O` [SEQ ID NO: 1], the “glucoregulatory effect compared to semaglutide” value ([1]; db/db mice dose-finding assay) is reported as “more potent and longer-acting than semaglutide”, the “blood glucose at 48 h” value [1, 7] is reported as 153 mg/dL and the “blood glucose at 72 h” value [1, 7] is reported as 187 mg/dL. The “blood glucose, maximal effect at 24 h” value ([1]; db/db mice, 3 and 10 nmol/kg single sc dose) was 129 mg/dL, the body weight response ([1]; db/db mice, single SC dose) was “greater weight loss as compared to semaglutide” and the “days on which feeding was suppressed” value ([1]; db/db mice, single SC dose) was “days 1 through 4”. The Cmax ([2]; 20 nmol/kg SC, listed as 17) was 890 ng/mL, the MRT ([2]; 20 nmol/kg SC, listed as 17) was 84 h and the clinical observations ([2]; 20 nmol/kg sc and iv, listed as 17) was “No abnormal clinical observations; also recorded: no clinical observations reported”. For the same compound, the Cmax ([2]; male, Yucatan, pig (miniature swine, Sus scrofa), plasma, sc, 20 nmol/kg, 20 nmol/kg SC, read-out: Cmax) was 887 ng/mL, the MRT ([2]; male, Yucatan, pig (miniature swine, Sus scrofa), plasma, sc, 20 nmol/kg, 20 nmol/kg SC, read-out: MRT) was 86 h and the Tmax [2, 8] was 52 h. For the same compound, the half-life [2, 8] was 52 h, the bioavailability ([2]; pig, in vivo, sc, 20 nmol/kg, read-out: bioavailability of subcutaneous vs intravenous administration) was 73% and the fraction unbound [3] was 0.00205. The “Initial Conc, Mean” value ([4]; 15000 ng/mL nominal) was 6070 ng/mL, the “Initial Conc, Rep” value ([4]; 15000 ng/mL nominal, replicate, listed as ALT-801) was 5950 ng/mL and 6180 ng/mL and 7270 ng/mL and the “Percentage of ALT-801 Bound, Mean” value ([4]; 15000 ng/mL, 37° C., 6 hours) was 99.8%. The “Percentage of ALT-801 Bound” value [4, 9] was 99.7% and 99.8% and 99.9%, the “Percentage of ALT-801 Unbound” value [4, 9] was 0.265% and 0.223% and 0.126% and the “Ultracentrifugate, Mean” value ([4]; 37° C., 6 hours) was 12.4 ng/mL. For the same compound, the “Ultracentrifugate, Rep” value ([4]; 37° C., 6 hours, replicate, listed as ALT-801) was 16.1 ng/mL and 13.5 ng/mL and 7.62^b ng/mL, the “Percent of Theoretical” value ([4]; initial conc vs 15000 ng/mL) was 40.4% and the fraction unbound at 6 h, 15000 ng/mL [5] was 0.002. The “PS-20 required per mg of ALT-801 to achieve the CMC” value ([6]; F58 buffer) was “at least 0.66 mg”, the “Polysorbate 20 CMC Value, 5.0 mg/ml ALT-801, Average” value ([6]; F58 buffer pH 7.7) was 4.01 mg/mL and the “Polysorbate 20 CMC Value, 10.0 mg/ml ALT-801, Average” value ([6]; F58 buffer pH 7.7) was 7.30 mg/mL. For the same compound, the “Polysorbate 20 CMC Value, 5.0 mg/ml ALT-801” value [6, 10] was 4.00 mg/mL and 4.02 mg/mL and the “Polysorbate 20 CMC Value, 10.0 mg/ml ALT-801” value [6, 10] was 7.30 mg/mL and 7.29 mg/mL.
